Measured values as given in paper PMC8041433 (Environmental Health Perspectives, 2021).

Chains of the proteins cited; added tags and fusions are not shown. Residues count along the entry.
UniProt P22303, 32-614 limits assumed: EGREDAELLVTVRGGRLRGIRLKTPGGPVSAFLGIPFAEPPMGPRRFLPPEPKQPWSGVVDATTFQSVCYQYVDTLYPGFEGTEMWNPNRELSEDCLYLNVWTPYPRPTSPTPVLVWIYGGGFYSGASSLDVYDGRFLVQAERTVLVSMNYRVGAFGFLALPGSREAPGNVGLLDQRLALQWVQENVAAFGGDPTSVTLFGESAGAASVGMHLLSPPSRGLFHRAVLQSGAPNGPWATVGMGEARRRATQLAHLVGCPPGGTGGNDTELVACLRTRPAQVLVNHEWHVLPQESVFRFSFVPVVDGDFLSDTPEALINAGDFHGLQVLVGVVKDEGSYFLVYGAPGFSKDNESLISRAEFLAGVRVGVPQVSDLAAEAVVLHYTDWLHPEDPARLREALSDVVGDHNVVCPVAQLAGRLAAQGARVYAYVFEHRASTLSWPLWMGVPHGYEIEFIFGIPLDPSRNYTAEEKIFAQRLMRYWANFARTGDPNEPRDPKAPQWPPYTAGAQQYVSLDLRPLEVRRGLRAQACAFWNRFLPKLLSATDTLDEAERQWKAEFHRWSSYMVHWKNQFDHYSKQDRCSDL

Key:
[1] = target: T1, recombinant human AChE (Homo sapiens, UniProt P22303); conditions: primary screening; protocol tox21-ms-ache-p2: enzyme-based AChE assay with human microsomes
[2] = target: AChE in SH-SY5Y cells (Homo sapiens, UniProt P22303); assay: Cell-based AChE inhibition assay in SH-SY5Y cells, monolayer; conditions: primary screening, protocol tox21-ache-p3: cell-based AChE assay
[3] = target: T1, recombinant human AChE; assay: Enzyme-based AChE inhibition assay (without microsomes), colorimetric qHTS; type: biochemical; conditions: primary screening; protocol tox21-ache-p5: enzyme-based AChE assay

## Cc1ccc([N+](=O)[O-])c([N+](=O)[O-])c1
[1]
  CC-v2 (curve classes): 4
  Efficacy: 0
[2]
  CC-v2 (curve classes): -2.1
[2]; null: inactive
  IC50: 39.9 µM and 40.8 µM and 36.3 µM
[3]
  CC-v2 (curve classes): 4
  Efficacy: 0

“And” between values parts separate entries of the source, which are not always exact repeats. Equal values may be shown once. Read-outs that look alike come from different tables or passages of the source. Only a part of the results on these compounds is given; other tests are left out.
